What was measured:
[1] = target: T1, CaV1.2 (Homo sapiens, UniProt Q13936); assay: cell-based
[2] = target: T1, CaV1.2

The chains behind the UniProt entries cited, without tags or fusion partners. Residues count along the entry.
UniProt Q13936, 1-2138 isoform Q13936-12: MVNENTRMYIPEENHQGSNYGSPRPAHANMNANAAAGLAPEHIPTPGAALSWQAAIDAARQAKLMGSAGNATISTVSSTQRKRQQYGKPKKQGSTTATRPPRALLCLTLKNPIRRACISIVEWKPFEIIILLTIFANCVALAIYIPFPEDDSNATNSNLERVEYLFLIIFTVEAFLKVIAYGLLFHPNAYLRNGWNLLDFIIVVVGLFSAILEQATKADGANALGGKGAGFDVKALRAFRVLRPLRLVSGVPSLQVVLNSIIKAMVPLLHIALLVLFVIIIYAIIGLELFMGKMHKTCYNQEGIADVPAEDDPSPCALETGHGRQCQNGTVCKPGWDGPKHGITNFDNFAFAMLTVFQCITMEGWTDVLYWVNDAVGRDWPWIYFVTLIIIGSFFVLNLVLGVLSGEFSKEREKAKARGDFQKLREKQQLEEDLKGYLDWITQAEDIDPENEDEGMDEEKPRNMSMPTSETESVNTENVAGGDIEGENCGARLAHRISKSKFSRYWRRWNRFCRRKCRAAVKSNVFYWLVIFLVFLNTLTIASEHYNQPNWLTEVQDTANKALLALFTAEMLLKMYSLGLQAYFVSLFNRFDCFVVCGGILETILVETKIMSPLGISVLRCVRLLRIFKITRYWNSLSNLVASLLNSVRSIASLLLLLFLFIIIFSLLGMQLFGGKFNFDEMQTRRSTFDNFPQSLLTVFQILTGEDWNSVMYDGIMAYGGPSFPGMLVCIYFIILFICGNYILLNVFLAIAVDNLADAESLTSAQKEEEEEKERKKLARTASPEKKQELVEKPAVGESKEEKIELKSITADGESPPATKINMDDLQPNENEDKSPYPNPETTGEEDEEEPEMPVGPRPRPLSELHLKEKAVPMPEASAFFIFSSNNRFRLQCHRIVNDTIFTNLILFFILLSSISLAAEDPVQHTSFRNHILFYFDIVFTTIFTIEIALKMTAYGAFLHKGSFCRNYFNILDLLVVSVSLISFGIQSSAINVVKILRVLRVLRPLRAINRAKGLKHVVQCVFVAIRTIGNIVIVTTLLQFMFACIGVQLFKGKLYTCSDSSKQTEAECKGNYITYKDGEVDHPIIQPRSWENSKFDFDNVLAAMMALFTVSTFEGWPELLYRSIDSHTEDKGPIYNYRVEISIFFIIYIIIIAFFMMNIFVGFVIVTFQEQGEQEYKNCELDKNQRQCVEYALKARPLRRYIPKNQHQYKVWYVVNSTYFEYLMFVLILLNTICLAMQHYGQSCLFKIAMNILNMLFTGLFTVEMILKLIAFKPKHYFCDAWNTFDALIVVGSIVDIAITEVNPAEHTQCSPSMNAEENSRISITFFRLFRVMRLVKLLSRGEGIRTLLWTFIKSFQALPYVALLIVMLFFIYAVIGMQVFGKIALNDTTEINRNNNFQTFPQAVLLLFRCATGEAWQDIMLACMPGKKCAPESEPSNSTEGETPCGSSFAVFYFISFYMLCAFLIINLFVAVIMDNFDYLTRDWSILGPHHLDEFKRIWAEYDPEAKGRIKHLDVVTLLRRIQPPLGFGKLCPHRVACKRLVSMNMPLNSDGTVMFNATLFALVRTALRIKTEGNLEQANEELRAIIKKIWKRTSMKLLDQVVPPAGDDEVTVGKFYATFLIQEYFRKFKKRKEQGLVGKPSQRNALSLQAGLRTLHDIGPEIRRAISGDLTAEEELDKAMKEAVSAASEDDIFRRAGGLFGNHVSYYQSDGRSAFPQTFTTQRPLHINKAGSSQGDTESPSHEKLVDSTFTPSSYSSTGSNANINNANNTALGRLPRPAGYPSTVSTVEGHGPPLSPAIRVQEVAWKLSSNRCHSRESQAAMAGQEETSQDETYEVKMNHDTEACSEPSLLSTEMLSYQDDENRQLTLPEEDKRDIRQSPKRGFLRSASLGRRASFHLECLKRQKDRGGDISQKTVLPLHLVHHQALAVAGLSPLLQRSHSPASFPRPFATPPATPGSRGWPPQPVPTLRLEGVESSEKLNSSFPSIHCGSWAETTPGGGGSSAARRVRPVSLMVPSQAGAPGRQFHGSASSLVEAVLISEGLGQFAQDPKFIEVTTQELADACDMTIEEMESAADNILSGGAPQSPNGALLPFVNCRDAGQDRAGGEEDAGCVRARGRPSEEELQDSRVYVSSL

O=C(Nc1ccc([N+](=O)[O-])cc1Cl)c1cc(Cl)ccc1O [Niclosamide]
IC50 [1]: 715 ± 49.2 nM | maximal % inhibition (efficacy), CaV1.2 in CHO cells ([2]; -50/-20 mV, 300 nM Bay K8644): 76.1% | Lower potency at CaV1.2 in CHO cells than for neuronal LTCCs ([2]; CHO CaV1.2 vs rat cortical neurons): ~ fourfold

Source: PMC7801380, “Development of phenotypic assays for identifying novel blockers of L-type calcium channels in neurons” (Scientific Reports, 2021)
